According to patent US20070111265A1, “Ligands for mineralocorticoid receptor (MR) and methods for screening for or designing MR ligands” (Van Andel Research Institute, priority 2005, published 2007):

Columns and labels:
MR LBD = target: T1, MR LBD (Homo sapiens, UniProt P08235, C808S); assay: Peptide profiling: unlabeled peptides compete off SRC2-3 binding to MR (FIG. 1C); settings: unlabeled peptide 500 nM; 20 nM corticosterone or aldosterone
T1 construct: made in house; host or cells: E. coli BL21DE3 (pET24a)
T1 sequence (P08235 727-984 C808S): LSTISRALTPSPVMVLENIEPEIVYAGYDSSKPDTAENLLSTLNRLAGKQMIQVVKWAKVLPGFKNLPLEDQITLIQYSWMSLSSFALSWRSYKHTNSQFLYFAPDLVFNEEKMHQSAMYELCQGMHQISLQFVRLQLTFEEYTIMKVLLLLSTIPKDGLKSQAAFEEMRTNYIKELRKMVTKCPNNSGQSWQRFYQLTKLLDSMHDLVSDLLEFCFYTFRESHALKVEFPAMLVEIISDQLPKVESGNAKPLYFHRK
Description: The cofactors that contain a pair of LXXLL motifs with strong binding affinity to MR are boxed. All peptides have identical length of 15 residues except for SRC1-4 motif, which terminates at position +7 relative to the first leucines (L+1) in the LXXLL motif, and for the AR peptides and the corepressor motifs, which are longer than the coactivator motifs. Sequences of peptides are listed in experimental procedures.
The binding of various peptide motifs to MR was determined by AlphaScreen assays using a hexahistidine detection kit from Perkin-Elmer. MR proteins were prepared as 6×His-GST fusion proteins for the assays.
The unlabeled peptides that were used in FIG. 1C are listed below in Table 2:
MR is the least studied member among the classical steroid hormone receptors and its physiological coactivators have not been clearly documented. To gain insights into which coactivator is physiologically relevant to MR, the inventors performed peptide profiling experiments using a panel of 38 unlabeled peptides to compete off the binding of the third LXXLL motif of SRC2 (also known as TIF2/GRIP1) to MR. […] The strong binding of the SRC1-4 motif and the PGC1 motifs is consistent with previous studies of the binding of LXXLL motifs to oxosteroid receptors (Hultman et al., 2005; Wu et al., 2004).

MR = target: T2, MR (Homo sapiens, UniProt P08235); assay: IC50 (µM)
T2 construct: receptor expression vector (pRS vector) encoding full-length GR and MR respectively (ATCC); host or cells: Cos-7
Description: Table printed on a drawing sheet, FIG. 3D
Head of the field: IC50 (µM)
The patent's description of the figure: FIG. 3.
First copying reader's note: The head of the sequence column numbers the residue positions relative to the first leucine of the LXXLL motif; the last two rows are protein fragments given as residue ranges.

CC(C)C[C@H](NC(=O)[C@H](CC(C)C)NC(=O)[C@H](CC(C)C)NC(=O)[C@H](CCCCN)NC(=O)[C@H](CCCCN)NC(=O)[C@H](CC(C)C)NC(=O)[C@H](CC(C)C)NC(=O)[C@H](CO)NC(=O)[C@@H]1CCCN1C(=O)[C@H](CCC(=O)O)NC(=O)[C@H](CCC(=O)O)NC(=O)[C@H](C)N)C(=O)N[C@@H](C)C(=O)N1CCC[C@H]1C(=O)N[C@@H](C)C(=O)O [PGC1α-1]
inhibition of SRC2-3 binding to MR (MR LBD): most potent competitors
IC50 (MR): 900 nM

CC(C)C[C@H](NC(=O)[C@H](CC(C)C)NC(=O)[C@H](Cc1ccc(O)cc1)NC(=O)[C@H](CCCNC(=N)N)NC(=O)[C@H](CC(C)C)NC(=O)[C@H](CC(C)C)NC(=O)[C@H](CCC(N)=O)NC(=O)[C@H](Cc1cnc[nH]1)NC(=O)[C@H](CC(=O)O)NC(=O)[C@H](CCCCN)NC(=O)[C@@H](N)CO)C(=O)N[C@@H](CC(=O)O)C(=O)N[C@@H](CCCCN)C(=O)N[C@@H](CC(=O)O)C(=O)N[C@@H](CCC(=O)O)C(=O)O [SRC1-3]
IC50 (MR): 1600 nM

CC[C@H](C)[C@H](NC(=O)[C@H](CCCCN)NC(=O)[C@H](Cc1cnc[nH]1)NC(=O)[C@H](CCCCN)NC(=O)[C@H](CCC(=O)O)NC(=O)[C@@H](N)CCCCN)C(=O)N[C@@H](CC(C)C)C(=O)N[C@@H](Cc1cnc[nH]1)C(=O)N[C@@H](CCCNC(=N)N)C(=O)N[C@@H](CC(C)C)C(=O)N[C@@H](CC(C)C)C(=O)N[C@@H](CCC(N)=O)C(=O)N[C@@H](CC(=O)O)C(=O)N[C@@H](CO)C(=O)N[C@@H](CO)C(=O)O [SRC2-2]
IC50 (MR): 2200 nM

CC[C@H](C)[C@H](NC(=O)[C@H](CCCCN)NC(=O)[C@H](Cc1cnc[nH]1)NC(=O)[C@H](CCCNC(=N)N)NC(=O)[C@H](CCC(=O)O)NC(=O)[C@@H](N)[C@@H](C)O)C(=O)N[C@@H](CC(C)C)C(=O)N[C@@H](Cc1cnc[nH]1)C(=O)N[C@@H](CCCNC(=N)N)C(=O)N[C@@H](CC(C)C)C(=O)N[C@@H](CC(C)C)C(=O)N[C@@H](CCC(N)=O)C(=O)N[C@@H](CCC(=O)O)C(=O)N[C@@H](CO)C(=O)N[C@@H](CO)C(=O)O [SRC1-2]
IC50 (MR): 1400 nM
